Measured values as given in US7833722B2, “Ligands for G protein-coupled receptor protein and use thereof” (Takeda Pharmaceutical Company Limited, priority 2004, dated 2010).

The chains behind the UniProt entries cited, without tags or fusion partners.
UniProt O14842, whole entry: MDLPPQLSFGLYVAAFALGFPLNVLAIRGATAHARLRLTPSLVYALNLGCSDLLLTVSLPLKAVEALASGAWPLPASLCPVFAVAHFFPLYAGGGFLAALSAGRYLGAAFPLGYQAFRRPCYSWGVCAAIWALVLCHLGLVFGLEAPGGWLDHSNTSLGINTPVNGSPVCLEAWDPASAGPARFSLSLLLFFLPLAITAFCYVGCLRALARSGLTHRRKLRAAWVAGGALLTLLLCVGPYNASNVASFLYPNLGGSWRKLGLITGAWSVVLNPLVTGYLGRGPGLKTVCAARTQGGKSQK

Target: T1, GPR40 (Homo sapiens, UniProt O14842)
T1 construct: expressed in transfected cells; host or cells: GPR40 expression cells
Test: SRE-luciferase reporter assay in GPR40 expression cells used for control
Format: cell-based
Settings: PBG

`NCc1[nH]cc(CCC(=O)O)c1CC(=O)O` [PBG, porphobilinogen] was tested, and the “luciferase activity in the GPR40 expression cells used for control (in words)” value was “did not show any significant increase”.
